Source: patent US4568690A, “1-Methyl-5-p-methylbenzoylpyrrole-2-acetamidoacetanilides with antiinflammatory, analgesic, antipyretic and anti-platelet aggregant activity” (priority 1983, dated 1986)

Experiments:
[1] = tested on: gastric mucosa; test: gastric tolerance (ulcerogenic activity); conditions: orally, four consecutive days; for Incidence % / 10: groups of 10 animals
[2] = in vivo; conditions: mouse
[3] = in vivo; conditions: rat, po

| Structure (SMILES) | Index gastric damage ([1]; 50 mg/kg) | Index gastric damage, signed figure (untitled; difference from Carrier index 8) ([1]; 50 mg/kg) | Incidence % / 10 ([1]; 50 mg/kg) [%/10] | Index gastric damage ([1]; 100 mg/kg) | Index gastric damage, signed figure (untitled; difference from Carrier index 8) ([1]; 100 mg/kg) | Incidence % / 10 ([1]; 100 mg/kg) [%/10] | Index gastric damage ([1]; 200 mg/kg) | Index gastric damage, signed figure (untitled; difference from Carrier index 8) ([1]; 200 mg/kg) | Incidence % / 10 ([1]; 200 mg/kg) [%/10] | LD50 ([2]; ip) [mg/kg] | LD50 ([2]; po) [mg/kg] | LD50 [3] [mg/kg] |
| --- | --- | --- | --- | --- | --- | --- | --- | --- | --- | --- | --- | --- |
| Cc1ccc(C(=O)c2ccc(CC(=O)NCC(=O)Nc3cccc(C)c3C)n2C)cc1 [Compound 1f] | 8 | +0 | 6 | 12 | +4 | 7 | 14 | +6 | 8 | 1000 | 1400 | 1300 |
| Cc1ccc(C(=O)c2ccc(CC(=O)O)n2C)cc1 [Tolmetin Na.2H2 O, reference compound] | 11 | +3 | 7 | 16 | +8 | 10 | 17 | +9 | 10 |  |  |  |
